Source: ChEMBL document CHEMBL1124917 (1990)

Legend:
[1] = (§1) Average weight change of mice was determined on day 6 after intraperitoneal injection on day 1 at a dose of 256 mg/kg following intraperitoneal implant of P388 leukemia cells in CDF1 mice
P388 [2] = assay: Antitumor activity was determined after intraperitoneal injection on day 1 at a dose of 64 mg/kg following intraperitoneal implant of P388 leukemia cells in CDF1 mice
P388 [3] = assay: Antitumor activity was determined after intraperitoneal injection on day 1 at a dose of 256 mg/kg following intraperitoneal implant of P388 leukemia cells in CDF1 mice
P388 [4] = assay: Average weight change of mice was determined on day 6 after intraperitoneal injection on day 1 at a dose of 128 mg/kg following intraperitoneal implant of P388 leukemia cells in CDF1 mice
P388 [5] = assay: Average weight change of mice was determined on day 6 after intraperitoneal injection on day 1 at a dose of 64 mg/kg following intraperitoneal implant of P388 leukemia cells in CDF1 mice
P388 [6] = assay: Antitumor activity was determined after intraperitoneal injection on day 1 at a dose of 128 mg/kg following intraperitoneal implant of P388 leukemia cells in CDF1 mice
P388 [7] = assay: Average weight change of mice was determined on day 6 after intraperitoneal injection on day 1 at a dose of 32 mg/kg following intraperitoneal implant of P388 leukemia cells in CDF1 mice
P388 [8] = assay: Antitumor activity was determined after intraperitoneal injection on day 1 at a dose of 32 mg/kg following intraperitoneal implant of P388 leukemia cells in CDF1 mice
P388 [9] = assay: as §1

SMILES: CC(=O)OC[C@H]1O[C@@H](n2ccc(NP(=O)(N3CC3(C)C)N3CC3(C)C)nc2=O)C[C@@H]1OC(C)=O (stereo not given in full)
- AWC [1]: -1.8 g
- T/C (P388 [2]): 150%
- T/C (P388 [3]): 188%
- AWC (P388 [4]): -1.1 g
- AWC (P388 [5]): -1.3 g
- T/C (P388 [6]): 163%
- AWC (P388 [7]): -0.8 g
- T/C (P388 [8]): 150%

SMILES: CC1(C)CN1P(=O)(Nc1ccn([C@@H]2O[C@H](CO)[C@@H](O)[C@@H]2O)c(=O)n1)N1CC1(C)C (stereo not given in full)
- AWC (P388 [9]): -1.7 g
- T/C (P388 [3]): 150%
- AWC (P388 [4]): -1 g
- T/C (P388 [6]): 122%

SMILES: CC1(C)CN1P(=O)(Nc1ccn([C@@H]2O[C@H](CO)[C@@H](O)[C@H]2O)c(=O)n1)N1CC1(C)C (stereo not given in full)
- AWC [1]: -1.1 g
- T/C (P388 [3]): 122%

SMILES: CC(=O)OC[C@H]1O[C@@H](n2ccc(NP(=O)(N3CC3(C)C)N3CC3(C)C)nc2=O)[C@H](OC(C)=O)[C@@H]1OC(C)=O (stereo not given in full)
- AWC (P388 [9]): -1.6 g
- T/C (P388 [3]): 150%
- AWC (P388 [4]): -0.7 g
- T/C (P388 [6]): 125%

SMILES: CC1(C)CN1P(=O)(Nc1ccn([C@H]2C[C@H](O)[C@@H](CO)O2)c(=O)n1)N1CC1(C)C (stereo not given in full)
- AWC [1]: -1.6 g
- T/C (P388 [3]): 150%
- AWC (P388 [4]): -0.7 g
- T/C (P388 [6]): 128%

SMILES: CC(=O)OC[C@H]1O[C@@H](n2ccc(NP(=O)(N3CC3(C)C)N3CC3(C)C)nc2=O)[C@@H](OC(C)=O)[C@@H]1OC(C)=O (stereo not given in full)
- AWC [1]: -1 g
- T/C (P388 [2]): 150%
- T/C (P388 [3]): 206%
- AWC (P388 [4]): -0.4 g
- AWC (P388 [5]): -0.8 g
- T/C (P388 [6]): 169%
- AWC (P388 [7]): -0.8 g
- T/C (P388 [8]): 150%
